Literature values in US20060058225A1, “Used of inhibitors of phospholipase a2 for the treatment, prevention or diagnosis of neural inflammatory or demyelinating disease” (McGill University, priority 2002, published 2006).

System: EAE
Conditions: mice

B1: IFNβ: interferon beta (protein, UniProt P01574 22-187, looked up)
Interferon beta: MSYNLLGFLQRSSNFQCQKLLWQLNGRLEYCLKDRMNFDIPEEIKQLQQFQKEDAALTIYEMLQNIFAIFRQDSSSTGWNETIVENLLANVYHQINHLKTVLEEKLEKEDFTRGKLMSSLHLKRYYGRILHYLKAKEYSHCAWTIVRVEILRNFYFINRLTGYLRN
relapse/mouse (controls 2.17): 1.17
mean clinical score, start of course (controls 3.5): 3.0
mean clinical score, end of course (controls 3.8): 2.5
